In general, IC50 refers to the concentration at which inhibition is half-maximal. Low readings indicate greater potency, high ones weaker potency.

Sequences of proteins named here, by UniProt entry; tags and fusion partners are left off. A change or cut given only in a name is not applied to a line headed by its entry.
UniProt P27815: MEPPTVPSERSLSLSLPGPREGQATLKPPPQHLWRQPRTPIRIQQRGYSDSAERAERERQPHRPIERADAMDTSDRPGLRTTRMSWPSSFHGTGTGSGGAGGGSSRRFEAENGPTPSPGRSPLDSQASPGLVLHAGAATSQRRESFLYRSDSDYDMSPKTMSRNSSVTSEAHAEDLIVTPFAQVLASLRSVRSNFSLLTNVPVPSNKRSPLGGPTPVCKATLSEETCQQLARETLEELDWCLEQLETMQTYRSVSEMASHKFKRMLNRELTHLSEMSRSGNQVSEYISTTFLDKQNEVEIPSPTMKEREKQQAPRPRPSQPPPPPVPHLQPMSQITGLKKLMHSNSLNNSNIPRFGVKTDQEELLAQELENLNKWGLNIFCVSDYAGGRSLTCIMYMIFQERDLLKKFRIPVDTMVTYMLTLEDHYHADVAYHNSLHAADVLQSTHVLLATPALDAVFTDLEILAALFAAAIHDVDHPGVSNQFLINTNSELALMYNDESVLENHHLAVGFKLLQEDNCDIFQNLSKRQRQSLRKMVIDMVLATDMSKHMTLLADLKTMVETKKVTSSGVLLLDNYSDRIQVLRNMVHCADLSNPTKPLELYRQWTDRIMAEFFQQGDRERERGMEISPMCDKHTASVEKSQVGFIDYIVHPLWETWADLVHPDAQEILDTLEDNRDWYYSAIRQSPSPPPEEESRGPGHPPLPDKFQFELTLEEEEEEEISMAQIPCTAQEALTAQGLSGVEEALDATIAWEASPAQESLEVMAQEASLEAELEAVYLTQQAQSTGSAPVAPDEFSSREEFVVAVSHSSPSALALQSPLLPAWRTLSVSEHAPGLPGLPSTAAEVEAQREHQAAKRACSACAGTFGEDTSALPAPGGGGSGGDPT
UniProt Q08499: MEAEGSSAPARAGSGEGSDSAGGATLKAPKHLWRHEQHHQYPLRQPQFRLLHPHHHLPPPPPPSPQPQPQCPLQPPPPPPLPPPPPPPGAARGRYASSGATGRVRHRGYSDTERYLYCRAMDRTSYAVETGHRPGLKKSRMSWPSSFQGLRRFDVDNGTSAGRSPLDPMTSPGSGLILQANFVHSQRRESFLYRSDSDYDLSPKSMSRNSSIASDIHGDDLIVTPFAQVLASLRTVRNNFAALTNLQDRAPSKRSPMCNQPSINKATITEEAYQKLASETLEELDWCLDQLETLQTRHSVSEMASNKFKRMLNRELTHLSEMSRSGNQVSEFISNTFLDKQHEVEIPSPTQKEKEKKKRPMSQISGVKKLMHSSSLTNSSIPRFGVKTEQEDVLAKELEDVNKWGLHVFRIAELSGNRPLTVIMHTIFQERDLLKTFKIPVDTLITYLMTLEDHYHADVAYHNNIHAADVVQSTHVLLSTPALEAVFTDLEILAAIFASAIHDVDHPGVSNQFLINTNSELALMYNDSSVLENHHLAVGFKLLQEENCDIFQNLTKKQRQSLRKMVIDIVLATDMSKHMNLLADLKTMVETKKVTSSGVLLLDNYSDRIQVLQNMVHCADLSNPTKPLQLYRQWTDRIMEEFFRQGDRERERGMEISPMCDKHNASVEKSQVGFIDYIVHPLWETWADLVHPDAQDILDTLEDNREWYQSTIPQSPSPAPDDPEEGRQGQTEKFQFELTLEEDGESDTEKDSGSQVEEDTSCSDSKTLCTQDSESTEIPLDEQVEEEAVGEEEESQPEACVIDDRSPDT
UniProt Q07343: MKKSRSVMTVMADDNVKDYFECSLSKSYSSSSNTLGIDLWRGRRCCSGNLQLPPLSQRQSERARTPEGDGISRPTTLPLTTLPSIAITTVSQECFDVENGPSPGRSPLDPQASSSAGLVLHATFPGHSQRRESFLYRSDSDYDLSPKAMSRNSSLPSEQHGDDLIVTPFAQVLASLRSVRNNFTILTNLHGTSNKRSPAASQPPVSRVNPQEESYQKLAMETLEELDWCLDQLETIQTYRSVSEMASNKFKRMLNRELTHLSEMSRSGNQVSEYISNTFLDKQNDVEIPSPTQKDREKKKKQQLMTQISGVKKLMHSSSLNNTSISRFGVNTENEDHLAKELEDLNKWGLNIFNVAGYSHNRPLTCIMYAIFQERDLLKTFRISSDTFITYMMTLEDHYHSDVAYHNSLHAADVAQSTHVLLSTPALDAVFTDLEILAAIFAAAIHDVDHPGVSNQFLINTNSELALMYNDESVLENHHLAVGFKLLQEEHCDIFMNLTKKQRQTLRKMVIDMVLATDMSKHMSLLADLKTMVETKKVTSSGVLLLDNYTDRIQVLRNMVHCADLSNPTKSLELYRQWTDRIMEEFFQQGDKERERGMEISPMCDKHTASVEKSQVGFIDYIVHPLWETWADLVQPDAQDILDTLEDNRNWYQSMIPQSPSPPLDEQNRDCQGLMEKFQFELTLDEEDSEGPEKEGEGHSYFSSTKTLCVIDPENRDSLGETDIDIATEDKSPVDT
UniProt Q08493: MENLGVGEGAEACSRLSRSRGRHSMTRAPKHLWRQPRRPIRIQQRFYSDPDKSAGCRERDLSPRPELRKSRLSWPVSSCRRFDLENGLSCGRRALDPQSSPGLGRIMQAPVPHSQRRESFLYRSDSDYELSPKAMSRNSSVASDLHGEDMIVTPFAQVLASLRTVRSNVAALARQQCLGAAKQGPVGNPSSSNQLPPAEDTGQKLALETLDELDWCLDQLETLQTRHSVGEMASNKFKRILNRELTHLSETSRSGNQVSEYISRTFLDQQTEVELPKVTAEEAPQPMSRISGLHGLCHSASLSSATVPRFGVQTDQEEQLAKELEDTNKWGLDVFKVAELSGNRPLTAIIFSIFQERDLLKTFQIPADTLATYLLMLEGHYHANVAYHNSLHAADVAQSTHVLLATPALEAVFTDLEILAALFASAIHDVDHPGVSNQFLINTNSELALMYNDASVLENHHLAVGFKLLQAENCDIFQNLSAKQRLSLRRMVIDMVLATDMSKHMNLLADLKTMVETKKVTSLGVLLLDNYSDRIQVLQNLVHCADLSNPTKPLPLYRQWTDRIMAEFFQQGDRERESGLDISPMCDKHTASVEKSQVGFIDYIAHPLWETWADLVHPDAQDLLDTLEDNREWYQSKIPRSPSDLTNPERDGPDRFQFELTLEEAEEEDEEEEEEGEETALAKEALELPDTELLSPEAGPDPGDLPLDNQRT

Where only a bound is given, the exact number is not on record here.

The target of this experiment is Phosphodiesterase 4 (Homo sapiens, UniProt P27815+Q08499+Q07343+Q08493). Briefly: Inhibition of human phosphodiesterase 4. Format: protein assay.

`CN1CC(=O)N2[C@H](c3ccc4c(c3)OCO4)c3[nH]c4ccccc4c3C[C@@H]2C1=O` yielded an IC50 of over 10 µM.

(Values after ChEMBL document CHEMBL1144389, “Optimization of purine based PDE1/PDE5 inhibitors to a potent and selective PDE5 inhibitor for the treatment of male ED” (Bioorg Med Chem Lett, 2005).)
